Consider 25 compounds from PubChem BioAssay AID1496 (Sanford-Burnham Center for Chemical Genomics, 2009).

The chains behind the UniProt entries cited, without tags or fusion partners.
UniProt Q01196, whole entry, looked up: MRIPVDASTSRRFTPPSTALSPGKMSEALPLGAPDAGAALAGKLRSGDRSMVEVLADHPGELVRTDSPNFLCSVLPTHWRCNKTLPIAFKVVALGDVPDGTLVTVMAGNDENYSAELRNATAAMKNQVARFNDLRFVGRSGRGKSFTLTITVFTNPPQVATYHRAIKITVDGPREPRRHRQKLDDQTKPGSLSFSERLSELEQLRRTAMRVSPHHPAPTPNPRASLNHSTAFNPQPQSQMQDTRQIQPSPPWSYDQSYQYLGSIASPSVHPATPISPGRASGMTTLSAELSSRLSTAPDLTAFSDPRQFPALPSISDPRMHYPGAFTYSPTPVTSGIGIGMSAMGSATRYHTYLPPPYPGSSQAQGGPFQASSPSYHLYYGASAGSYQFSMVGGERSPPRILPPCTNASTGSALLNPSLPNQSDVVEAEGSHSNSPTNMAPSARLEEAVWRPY
UniProt Q13951, whole entry, looked up: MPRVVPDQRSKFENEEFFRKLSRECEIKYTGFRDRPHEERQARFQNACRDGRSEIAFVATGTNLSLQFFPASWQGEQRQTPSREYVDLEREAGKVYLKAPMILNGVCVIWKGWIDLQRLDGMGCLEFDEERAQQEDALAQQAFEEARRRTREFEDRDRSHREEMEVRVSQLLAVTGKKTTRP

This is a selection; strong and weak results do not stand in their true shares. Active and inactive are the calls of the source.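 How the source made its calls: active means inhibition over about 50% at 20 µM in the single-dose screen (limit read from the data); inactive means the rest.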

The experiment deals with Runt-related transcription factor 1 (Homo sapiens) + Core-binding factor subunit beta (Homo sapiens) (UniProt Q01196+Q13951). Nature of the experiment: inhibitors of RUNX1 Runt–CBFb binding, primary screen, biochemical, FRET, Cerulean-Runt, Venus-CBFb, uHTS (AID 1496).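 Further: 0% = DMSO wells and 100% = excess unlabeled CBFb competitor control.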 The following applies: Cerulean-Runt/Venus-CBFb FRET ratio 530/480, 1 h; at 20 µM; hits give high values.
Regarding `CP(=O)(Nc1cccc(Br)c1)Oc1ccccc1` (stereo not given), the inhibition (commonly the change of the read-out against control, counted positive when it falls) was inactive: -0.1%. The value for `Cc1cc(C)cc(OP(C)(=O)Nc2ccccn2)c1` (stereo not given) was inactive: -0.9%; that for `Cc1ccc(C)c(NP(C)(=O)Oc2ccccc2)c1` (stereo not given) was inactive: -1.3%. The value for `COc1ccccc1OP(C)(=O)Nc1cccc(Br)c1` (stereo not given) was inactive: 0%. The value for `Cc1cc(C)cc(OP(C)(=O)Nc2ccc(C)cc2C)c1` (stereo not given) was inactive: 1.4%; that for `CCOC(=O)c1ccc(NP(C)(=O)Oc2cc(C)cc(C)c2)cc1` (stereo not given) was inactive: -4.4%. Turning to `CC1=NCCc2c1[nH]c1ccccc21.O=[N+]([O-])c1cc([N+](=O)[O-])c(O)c([N+](=O)[O-])c1`, the inhibition is inactive: -1.9%. As for `O=C(O)c1cccc(Nc2c([N+](=O)[O-])cc([N+](=O)[O-])cc2[N+](=O)[O-])c1`, the inhibition is inactive: -0.7%. The value for `COc1ccccc1OP(C)(=O)Nc1c(C)cccc1C` (stereo not given) was inactive: -32.9%; that for `CN1CCCCC1COC(=O)C1(O)c2ccccc2CCc2ccccc21` (stereo not given) was inactive: -0.9%. The value for `CP(=O)(Nc1ccc(SC(F)(F)F)cc1)Oc1ccccc1` (stereo not given) was inactive: -2.7%.

With `CCCOc1ccc(NP(C)(=O)Oc2ccc(Cl)cc2)cc1` (stereo not given), the inhibition is inactive: -4.7%.

For the compound `O=[N+]([O-])c1cc([N+](=O)[O-])c(Nc2nnnn2CCO)c([N+](=O)[O-])c1`, the inhibition is inactive: -4.4%. The value for `CCOC(=O)C(CC)C1=NC(C)(C)Cc2ccccc21.O=[N+]([O-])c1cc([N+](=O)[O-])c(O)c([N+](=O)[O-])c1` (stereo not given) was inactive: -1.8%; that for `Cc1nc2ccc3ccccc3c2s1.O=[N+]([O-])c1cc([N+](=O)[O-])c(O)c([N+](=O)[O-])c1` was inactive: 1.2%. Next, `O=[N+]([O-])c1cc([N+](=O)[O-])c(-n2nnc3ccccc32)c([N+](=O)[O-])c1`: inactive: 0.9%; `CCOP(C)(=S)SCC(=O)NC(C)C(=O)O` (stereo not given): inactive: 0.8%. Next, `CCOC(=O)c1ccc(NP(C)(=O)Oc2ccc(OC)cc2)cc1` (stereo not given): inactive: -2%; `CP(=O)(Nc1ccccn1)Oc1ccc(Cl)cc1` (stereo not given): inactive: -0.6%.

Regarding `Cc1cccc(C)c1OP(C)(=O)Nc1ccc(SC(F)(F)F)cc1` (stereo not given), the inhibition is inactive: -0.9%. With `CP(=O)(Nc1ccc(SC(F)(F)F)cc1)Oc1ccc(Cl)cc1` (stereo not given), the inhibition was inactive: -3.3%. Next, `CP(=O)(Oc1ccccc1)OC(c1ccccc1)C(F)(F)F` (stereo not given): inactive: -3%; `CCc1ccc(OP(C)(=O)N2CCN(c3ccc([N+](=O)[O-])cc3)CC2)cc1` (stereo not given): inactive: -6.1%. In the case of `CP(=O)(NC(=O)Nc1ccccc1)Oc1ccccc1` (stereo not given), the inhibition is inactive: -2.3%. The value for `Cc1cc(C)cc(OP(C)(=O)Nc2ccc(SC(F)(F)F)cc2)c1` (stereo not given) was inactive: -4.1%.
